Assay [1] has as its target Cyclin-dependent kinase 2/cyclin A (Homo sapiens, UniProt P24941). The assay can be described thus: Inhibition of human recombinant CDK2/cyclin A expressed in insect cells.
The test system of the next assay is KMS-11. The assay can be described thus: cells. The conditions noted are these: Homo sapiens, KMS-11, 48 h.
The test system of a further assay is SH-SY5Y. The assay is described as follows: cells. The conditions noted are these: Homo sapiens, 48 h.

pIC50: −log10 of the molar value.

On to `CC(C)Oc1ccnc2[nH]cc(-c3ccnc(N)n3)c12` [MERIOLIN 6], for which the pIC50 (usually the negative decadic logarithm of the IC50, by convention in mol/L) in assay [1] was 8.29; with KMS-11 it was 7.40; in the assay with SH-SY5Y, 7.42.

The record behind these values is ChEMBL document CHEMBL1141564, “Meriolins (3-(pyrimidin-4-yl)-7-azaindoles): synthesis, kinase inhibitory activity, cellular effects, and structure of a CDK2/cyclin A/meriolin complex” (J Med Chem, 2008).
